Experimental data: EP2322194A2 (Reprise Biopharmaceutics, LLC, priority 2003, dated 2005)

Assays:
[1] = in vivo; cited from earlier work
[2] = in vivo
Procedure: Twenty-four healthy non-smoking male volunteers were enrolled in the present study. The study was designed as a one-centre, open-labelled, randomized, balanced, 4-way cross-over phase I study. […] Between the doses there was a washout period of 72 hours. In order to standardize the buccal mucosa before administration of the orodispersible tablet, the subjects were asked to avoid foods, chewing gun etc. Subjects were allowed to brush their teeth in the morning before dosing, but without toothpaste.
3.2 (Pharsight Corporation, US). […] Values below LOQ not followed by values above the LOQ are excluded from the NCA analysis, and set to zero in the descriptive statistics on concentrations.

[3] = in vivo, cited from earlier work

## 1-desamino-8-D-arginine vasopressin [desmopressin]
[1]
  absorption: not significantly absorbed
[2]
  bioavailability: 0.30%
  bioavailability, 95% confidence interval: 0.23-0.38%
[2]; iv
  mean clearance: 8.5 dm^3/hr
  mean volume of distribution at steady state (Vss): 29.7 dm^3
[3]; sc
  % Bioavailability: ~90%
[3]
  % Bioavailability: 3-5%

Like-named read-outs stand apart in the source and are kept apart here.
